These results are taken from PubChem BioAssay AID624169 (The Scripps Research Institute Molecular Screening Center, 2012).

Amino acid sequences for entries named in this document (tags omitted).
UniProt P35363, whole entry, looked up: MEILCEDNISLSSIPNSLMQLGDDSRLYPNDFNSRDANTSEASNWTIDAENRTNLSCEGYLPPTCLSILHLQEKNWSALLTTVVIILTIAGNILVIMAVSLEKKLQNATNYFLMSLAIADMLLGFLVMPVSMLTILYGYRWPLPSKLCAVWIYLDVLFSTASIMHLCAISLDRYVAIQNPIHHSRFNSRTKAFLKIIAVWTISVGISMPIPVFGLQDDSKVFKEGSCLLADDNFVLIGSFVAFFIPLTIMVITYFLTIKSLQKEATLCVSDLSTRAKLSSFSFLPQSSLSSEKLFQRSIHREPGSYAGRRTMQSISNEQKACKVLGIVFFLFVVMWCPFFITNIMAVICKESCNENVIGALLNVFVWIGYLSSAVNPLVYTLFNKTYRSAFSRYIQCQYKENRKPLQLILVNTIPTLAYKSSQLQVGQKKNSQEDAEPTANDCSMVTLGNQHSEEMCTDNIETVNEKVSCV

Each structure is given as a SMILES string. This is a selection; strong and weak results do not stand in their true shares. The source made the active and inactive calls.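 Rule for the calls: active = activation above a run cutoff, the mean activation of all tested compounds plus 3 SD (cut at about 14% in these data); inactive = the rest.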

The test concerns the target 5-hydroxytryptamine receptor 2A (Mus musculus) (UniProt P35363). The test can be described thus: mouse Htr2a agonists via beta-arrestin recruitment, primary screen, cell-based, luminescence (AID 624169).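 Note: 0% = plate median of compound wells and 100% = 30 µM serotonin.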 Conditions: CHO-K1 mHTR2A beta-arrestin complementation, at 7.6 µM, active compounds read high, percent of 30 µM serotonin response.
Consider `Clc1ccc(Cl)c(NC2=NCC(CBr)S2)c1` (centres undefined), for which the activation was inactive: 0.53%.

On to `CN1CCCC(OC(=O)C(c2ccccc2)c2ccccc2)C1` (centres undefined), for which the activation was inactive: -0.73%.

On to `CC(C)CC(=O)NC(Sc1ccc(Cl)cc1)C(Cl)(Cl)Cl` (centres undefined), for which the activation is inactive: 0.92%.

Consider `Nc1cc(N)c2nonc2c1[N+](=O)[O-]`, for which the activation was inactive: 1.24%.

As for `O=C(NC(Sc1ccncn1)C(Cl)(Cl)Cl)c1ccccc1` (centres undefined), the activation was inactive: 0.06%.

Consider `Oc1ccccc1CNc1ccccn1`, for which the activation is inactive: -1.44%.

With `O=[N+]([O-])C1C(O)C(O)C([N+](=O)[O-])C(O)C1O` (centres undefined), the activation was inactive: -2.39%.

Take `CCOc1ccc(C2=NCC(CBr)S2)cc1` (centres undefined): the activation is inactive: 3.78%.

As for `O=P1(Nc2nc3ccc(Cl)cc3s2)COc2ccccc2O1` (centres undefined), the activation was inactive: 2.57%.

Take `CCc1cc(O)c([N+](=O)[O-])c(C)c1[N+](=O)[O-]`: the activation was inactive: 11.2%.

In the case of `CC(C)(C)C(=O)NC(Sc1ccccc1)C(Cl)(Cl)Cl` (centres undefined), the activation is inactive: -4.68%.

On to `COC(=O)C1(C)COP(=O)(NCc2ccccc2)OC1` (centres undefined), for which the activation was inactive: 3.63%.

Turning to `N#C/C(=C\c1ccc(N(CCBr)CCBr)cc1)C(N)=O`, the activation is inactive: -2.67%.

As for `CC(=O)c1ccc(N2CC2c2ccncc2)cc1` (centres undefined), the activation was inactive: -0.1%.

In the case of `C[C@@H]1C=CCP(=O)(Oc2ccccc2)O1` (some centres undefined), the activation was inactive: -1.4%.

In the case of `C[C@H]1OP(=O)(Oc2ccccc2)C[C@@H]2O[C@@H]21` (some centres undefined), the activation is inactive: -0.36%.

With `Cc1ccccc1CN(C)C(=O)COC(=O)C(O)(c1ccccc1)c1ccccc1`, the activation is inactive: 4.5%.

As for `CC(=O)Nc1ccc(Oc2c([N+](=O)[O-])cc([N+](=O)[O-])cc2[N+](=O)[O-])cc1`, the activation is inactive: -1.68%.

Take `CC(=O)Nc1ccc([As](=O)(O)O)c(O)c1`: the activation is inactive: -4.01%.

Take `O=C(NC1CCS(=O)(=O)C1)NP(=S)(Oc1ccccc1)Oc1ccccc1` (centres undefined): the activation was inactive: 3.66%.

On to `CCNC(=S)/N=C(\N)N[N+](=O)[O-]`, for which the activation was inactive: 1.25%.

Regarding `Cc1ccc(NP(=O)(Oc2cccc(C)c2)Oc2cccc(C)c2)nc1`, the activation is inactive: 0.93%.

On to `c1ccc(-c2nn[nH]n2)c(-c2nn[nH]n2)c1`, for which the activation is inactive: 0.5%.

Turning to `O=P1(N(CCCl)CCCl)OCCC2CCCCN21` (centres undefined), the activation was inactive: -0.91%.

With `CC(=O)NC(SC(=S)N(CC(C)C)CC(C)C)C(Cl)(Cl)Cl` (centres undefined), the activation was inactive: 1.59%.

Take `Cc1ccc(OP(=O)(Nc2ccccn2)Oc2ccc(C)cc2)cc1`: the activation is inactive: -7.28%.

As for `COC(=O)c1cc2c(s1)N=C(c1ccccc1)N(C)P2(=O)N1CCOCC1` (centres undefined), the activation was inactive: -1.43%.

With `CCC(=O)N1C2C3N(C(=O)CC)C1C1N(C(=O)CC)C(C(N1C(=O)CC)N3C(=O)CC)N2C(=O)CC`, the activation is inactive: -0.42%.

On to `O=C(OC1CN2CCC1CC2)c1ccccc1` (centres undefined), for which the activation was inactive: -9.38%.

For `CN(C)C(=O)Oc1noc2ccccc12`, the activation is inactive: 4.3%.

Consider `O=c1c2cc([N+](=O)[O-])ccc2[nH]c2c([N+](=O)[O-])cc([N+](=O)[O-])cc12`, for which the activation is inactive: -6.5%.

Turning to `Cc1ccccc1OP(=O)(Nc1ccccn1)Oc1ccccc1C`, the activation is inactive: 5.87%.

Regarding `CC(NC(=O)COC(=O)C(O)(c1ccccc1)c1ccccc1)c1ccccc1` (centres undefined), the activation was inactive: 3.79%.

On to `Nc1ccc(CCCCOc2ccccc2)cc1`, for which the activation is inactive: -5.65%.

As for `COc1ccc(N)c([N+](=O)[O-])c1[N+](=O)[O-]`, the activation was active: 15%.

Turning to `CN(C)C1(CNC(=O)c2ccc(Cl)c(S(N)(=O)=O)c2)CCCCC1`, the activation was inactive: 5.69%.

In the case of `O=P(Nc1ccccn1)(c1ccc(Br)cc1)c1ccc(Br)cc1`, the activation is inactive: -0.4%.

`C[C@H]1OP(=O)(Oc2ccccc2)[C@H](O)[C@H](O)[C@H]1N=[N+]=[N-]` (some centres undefined): the activation was inactive: -4.73%.

Regarding `O=P(Nc1nc2ccccc2s1)(c1ccccc1)c1ccccc1`, the activation is inactive: -1.5%.

As to `CC(=O)NC(SC(=S)N(C)C)C(Cl)(Cl)Cl` (centres undefined), the activation was inactive: -4.54%.

Turning to `O=[N+]([O-])c1ncn(CCn2cnc([N+](=O)[O-])n2)n1`, the activation was inactive: 11.8%.

Regarding `O=[N+]([O-])c1ccc(O)c(/C=N/Nc2ccc([N+](=O)[O-])cc2[N+](=O)[O-])c1`, the activation was inactive: -0.96%.

With `O=[As](O)(c1ccccc1)c1ccc(O)cc1`, the activation was inactive: 1.26%.

For `Nc1ccc([As](=O)(O)c2ccc([N+](=O)[O-])cc2)cc1`, the activation was inactive: 1.94%.

As to `C(Cc1nn[nH]n1)Cc1nn[nH]n1`, the activation is inactive: -1.32%.

For `O=C(OC1CN2CCC1CC2)c1cccc(Cl)c1` (centres undefined), the activation was inactive: -4.97%.

Consider `O=P(Nc1nccs1)(c1ccccc1)c1ccccc1`, for which the activation was inactive: -0.34%.

For the molecule `CC(C)C(=O)NC(Sc1ccccc1)C(Cl)(Cl)Cl` (centres undefined), the activation was inactive: -1.89%.

Regarding `c1nnnn1CCn1cnnn1`, the activation was inactive: 2.3%.
